Here are results for one compound from US8617534B2, “Compositions and method for manipulating PIM-1 activity in circulatory system cells” (San Diego State University (SDSU) Foundation, priority 2007, dated 2013).

The test system of this assay is cardiac progenitor cells. In words: Cell growth of cardiac progenitor cells (trypan blue exclusion, proliferation rate). The class given is cell-based. To be noted: 10 uM in culture media; day two and three; compared to untreated CGW-Pim-wt CPCs.

Take `O=c1c(O)c(-c2ccc(O)c(O)c2)oc2cc(O)c(O)c(O)c12` [quercetagetin]: the “growth rate of CGW-Pim-wt CPCs” value is “significantly decreased the growth rate”.
